Here are results for two molecules from patent US20060058383A1 (priority 2004, published 2006).

The conditions of this data set: i.v.

Consider `O=C(O)O.O=C([O-])C(=O)CBr.[Na+]` [S-Glycolycin, Sodium 3-bromo-2-oxopropionate carbonic acid], for which the toxicity in mice result (5 mg/kg, three times per week, M/W/F) was “No obvious toxicity”.
`CCCOC(=O)C(=O)CBr` [Glycolycin, propyl 3-bromo-2-oxopropionate]: the “acute toxicity in mice” value (nude mice 6 mg/kg i.p. daily for three days, C3H-Hej mice 10 mg/kg/day, daily for 5 days) is “No obvious acute toxicity”.
